Data: PubChem BioAssay AID651661 (Broad Institute, 2012)
The entries are a selection whose mix differs from that of the whole data set. The source made the active and inactive calls.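 Rule for the calls: active = mean inhibition of at least 50% after viability correction, with every replicate also passing that limit; inconclusive = mean reaches 50% but only one of two replicates passes; inactive = the rest.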

Assay: blockers of EWS/Fli transcriptional output – A673 cells, NR0B1 luciferase, luminescence, MLPCN library, primary screen (AID 651661);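 note: firefly luciferase signal divided by Alamar Blue viability fluorescence both relative to DMSO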
Settings: A673 NR0B1-luciferase reporter, viability-normalised; at 12.6 µM; hits give high values

Row | SMILES | inhibition
1 | CCc1ccc(OP(C)(=O)N2CCN(c3ccc([N+](=O)[O-])cc3)CC2)cc1 (configuration not stated) | inactive: 11.9%
2 | COc1ccccc1OP(C)(=O)Nc1cccc(Br)c1 (configuration not stated) | inactive: -13.1%
